Yeast mating assay 1: variants of the scFv Ab-14

Antigen: PDVDLGDISGINAS, a 14-residue peptide of the SARS-CoV-2 spike HR2 region.

Parent: Ab-14, a human scFv built as VH, a (GGGGS)3 linker, VL. Only the CDRs of the light chain vary.
VH: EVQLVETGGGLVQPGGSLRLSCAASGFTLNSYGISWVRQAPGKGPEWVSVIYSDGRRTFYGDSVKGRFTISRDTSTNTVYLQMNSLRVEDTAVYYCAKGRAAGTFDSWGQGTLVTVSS
VL: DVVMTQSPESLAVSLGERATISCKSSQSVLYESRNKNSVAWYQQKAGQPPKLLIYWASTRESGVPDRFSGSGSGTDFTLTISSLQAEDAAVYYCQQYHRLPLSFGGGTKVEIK

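Phage display of a naive human antibody library on the peptide gave the parent. In library AAYL50, one, two or three CDR residues were substituted; doubles and triples were drawn at random. In AlphaSeq, yeast of one mating type display the scFv and yeast of the other type display the target. Pairs that bind mate more often; barcode pairs of the diploids are counted by sequencing. Read counts were normalised to the haploid input and turned into Kd by a linear fit to BCL2-family pairs of known affinity, for each replicate. Mating was done three times.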

Variants are written as CDR1, CDR2 and CDR3 of the light chain (limits as in the source). Parent: KSSQSVLYESRNKNSVA, WASTRES, QQYHRLPLS. Affinities are written as log10 Kd with Kd in nM; a lower number is a better binder. The mean shown is taken over the replicates in which the pair was detected. "nd" means that the variant was in the library but no mating with the target was seen in that replicate; the authors take this as a sign of poor binding, and no number exists.

| CDR-L1 | CDR-L2 | CDR-L3 | replicates, log10 nM | mean log10 Kd (nM) |
|---|---|---|---|---|
| KSSQSVLYESRNKGSVA | KASTRES | QQSHRLPLS | 4.58 / nd / 4.62 | 4.60 |
| DSSQSVLYESRNKNSVA | WYSTRES | QQTHRLPLS | nd / nd / nd | nd |
| KSSKSVLYESRNKNSVA | WASDRES | QQYRRLPLS | 4.83 / 3.17 / 4.24 | 4.08 |
| KSSQSELYESRNKNSVA | WASTRGS | QQYHRGPLS | 0.87 / 0.98 / 1.21 | 1.02 |
| KKAQSVLYESRNKNSVA | WASTEES | QQYHRLPLS | nd / nd / nd | nd |
| KSRQSVLYESPNKNSVH | WASTRES | QQYHRLPLS | nd / nd / nd | nd |
| KSSFSVLEESRNKNSVA | WASKRES | QQYHRLPLS | 0.35 / 0.62 / 0.59 | 0.52 |
| KSSQSVCYESRNKNSVA | WASTRES | HMYHRLPLS | 4.34 / nd / nd | 4.34 |
| KSSQSRLHESRNKNLVA | WASTRES | QQYHRLPLS | nd / nd / nd | nd |
| KSSQSVLYESRNKYSVA | WASTRES | QQWHRLPLS | nd / 3.65 / nd | 3.65 |
| KSSQSVLYESRNKNSVA | WASQRES | QCYHFLPLS | 2.08 / 2.30 / 2.47 | 2.28 |
| KSSQSVLFESRNKNSVA | WASTRTS | QQYHRLPYS | nd / nd / nd | nd |
| KSSQSNLYESRNKNSVA | WESTHES | QQYHRLPLS | nd / nd / nd | nd |
| KSSQSVLYESRNKNSVA | WASTRTD | AQYHRLPLS | 2.26 / 2.50 / 2.61 | 2.46 |
| KSSQSVLYESRNKNSEA | WASTRGS | QQIHRLPLS | nd / nd / 4.81 | 4.81 |
| KSSQSVLYESRNKNSTA | HASWRES | QQYHRLPLS | 2.38 / 2.53 / 3.08 | 2.66 |
| KSFQSVLYESRNQNSVA | WASTRES | QQYGRLPLS | 2.27 / 1.50 / 1.66 | 1.81 |
| KSSQSVLYESRNKNQVA | WASTRPL | QQYHRLPLS | 3.98 / 4.96 / nd | 4.47 |
| KSSQSLLYESRNKNSVA | WASTRAS | QQSHRLPLS | 3.12 / 3.55 / 2.97 | 3.21 |
| KSSQHVLYESRNKNSVA | WNSTRES | QQYHRLPLS | nd / 4.74 / 6.30 | 5.52 |
| KSYQDVLYESRNKNSVA | WASTRES | QQYHRAPLS | nd / nd / nd | nd |
| KHSQSVLYESRNKNSVA | HASTRES | QDYHRLPLS | -0.19 / 0.08 / -0.07 | -0.06 |
| KYSQSVLYASRNKNSVA | WASTRES | QQYHVLPLS | 0.49 / 0.69 / 0.62 | 0.60 |
| CSSQSVLYESRNKNSVA | WASTRHS | QQYWRLPLS | 2.51 / 2.79 / 3.83 | 3.04 |
| QSRQSVLYESRNKNSVA | WASTRES | QQYHRLPGS | nd / nd / nd | nd |
| KSSQSVLYESRNKNSEA | WASTRES | QQYERNPLS | 4.18 / nd / 3.66 | 3.92 |
| KSSQSVTYESRNKNSVA | WASWRES | QQYHRLPLK | 3.64 / nd / nd | 3.64 |
| KSSQSVLVESRNYYSVA | WASTRES | QQYHRLPLS | nd / nd / nd | nd |
| KSSQSMLYPSRNKNSVA | WASTRIS | QQYHRLPLS | 1.22 / 1.25 / 1.41 | 1.29 |
| KSSQSVLYLSRNKNSVA | WASTRVS | QYYHRLPLS | nd / nd / nd | nd |
| KSDQQVLYESRNKNSVA | WASTRES | QRYHRLPLS | nd / nd / 3.70 | 3.70 |
| KSSQSVLYESRNKNSVA | MASTRES | FQCHRLPLS | 5.49 / 3.98 / 4.89 | 4.79 |
| KSSQSVLYESQNSNSVA | WASTRQS | QQYHRLPLS | 0.51 / 0.66 / 0.64 | 0.60 |
| KSSQSVLYESRNPNSVA | WASTYHS | QQYHRLPLS | nd / nd / nd | nd |
| KSSQSVLYKSRNKASVA | WASTRES | QQYHRLPHS | 2.16 / 2.32 / 2.79 | 2.42 |
| KSSQSVLYESRNKYSVA | WASTIES | QQYHRLPLS | nd / nd / nd | nd |
| KSSQLVLYESRNKDSVA | WASTRES | QQYHRAPLS | 3.14 / nd / nd | 3.14 |
| KSSWSVLYENRNKNSVA | WASTQES | QQYHRLPLS | 4.50 / 3.14 / nd | 3.82 |
| KSSQSVLYESRNKNSVA | WASRRES | QQYHRLPLP | nd / 3.73 / nd | 3.73 |
| KSSQSVLYESRKKPSVA | WASTRES | QQFHRLPLS | nd / nd / nd | nd |
| KSSQSVLYISRNKNSVA | WQSQRES | QQYHRLPLS | 3.71 / nd / nd | 3.71 |
| KSSQSVLYESINKNSVA | WASTRES | QQTHRLPLS | 0.78 / 1.02 / 0.93 | 0.91 |
| KSSQSVLYESRNKNSPA | HASTRES | QQYHRLPLE | nd / nd / nd | nd |
| KSSQSVLYTSRNKNSVA | WASTRES | QQVHRLPTS | 2.23 / nd / 2.98 | 2.61 |
| KSSQSVLYESRNKNSVA | WAHPRES | QQYHRGPLS | 4.54 / 5.01 / 3.89 | 4.48 |
| KSSQSVLYESRNKNSVA | WASTRES | QQYHRVELA | 0.52 / 0.99 / 0.70 | 0.74 |
| KSSQSCLYKSRNKNSVA | WASTRES | QQYHRLPLF | nd / nd / nd | nd |
| KSDQSVLYESRNKNSVA | WASTPEY | QQYHRLPLS | 2.93 / 2.43 / 2.84 | 2.73 |
| KSSQSVLYESRNKNVVA | WASTRER | YQYHRLPLS | nd / nd / nd | nd |
| KSSQSVLYESRRHNSVA | WASTREE | QQYHRLPLS | 0.74 / 0.79 / 1.02 | 0.85 |
| KSSQSVLYESRNFNSVA | WASTRES | QQYHFLKLS | nd / nd / nd | nd |
| KSRKSVLYESRNKNSVA | WASTTES | QQYHRLPLS | 3.54 / nd / nd | 3.54 |

For reference, 5 entries of the list once more:

CDR-L1,CDR-L2,CDR-L3,"replicates, log10 nM",mean log10 Kd (nM)
KSSQSVLYESRKKPSVA,WASTRES,QQFHRLPLS,nd / nd / nd,nd
KSSQSMLYPSRNKNSVA,WASTRIS,QQYHRLPLS,1.22 / 1.25 / 1.41,1.29
KSSQSLLYESRNKNSVA,WASTRAS,QQSHRLPLS,3.12 / 3.55 / 2.97,3.21
KSFQSVLYESRNQNSVA,WASTRES,QQYGRLPLS,2.27 / 1.50 / 1.66,1.81
CSSQSVLYESRNKNSVA,WASTRHS,QQYWRLPLS,2.51 / 2.79 / 3.83,3.04

In this assay the parent's reference entry averaged 0.65; its copy inside this library read 1.68. Background: pairings of library AAYL50 with three empty control strains gave a value in 18% of cases (median 4.19, 5th percentile 2.99). Values in that range, when seen in few replicates, are hard to tell from nonspecific mating.

The measurements come from Engelhart et al. 2022 (doi:10.1038/s41597-022-01779-4) through the FLAb antibody collection.